Target: Histamine H1 receptor (Cavia porcellus) (UniProt P31389)
Test: Antagonist activity at guinea pig ileum histamine H1 receptor at 0.3 x 10'4 M
Format: functional, tissue-based

By UniProt entry, the sequences of proteins in these tests, tags left out.
UniProt P31389, whole entry, looked up: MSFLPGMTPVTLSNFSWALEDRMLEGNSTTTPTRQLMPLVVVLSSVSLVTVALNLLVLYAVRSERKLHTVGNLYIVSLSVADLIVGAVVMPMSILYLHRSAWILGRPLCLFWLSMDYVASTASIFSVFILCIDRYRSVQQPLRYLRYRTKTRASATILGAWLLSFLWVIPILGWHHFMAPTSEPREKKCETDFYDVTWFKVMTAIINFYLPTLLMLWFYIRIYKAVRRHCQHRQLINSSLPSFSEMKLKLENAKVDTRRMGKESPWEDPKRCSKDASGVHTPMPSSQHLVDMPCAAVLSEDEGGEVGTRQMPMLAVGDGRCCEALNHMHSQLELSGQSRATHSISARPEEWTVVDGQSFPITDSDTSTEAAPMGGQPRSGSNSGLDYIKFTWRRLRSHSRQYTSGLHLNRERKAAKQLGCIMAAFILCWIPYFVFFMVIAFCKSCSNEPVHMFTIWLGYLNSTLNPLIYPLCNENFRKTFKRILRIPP

## CN1CC[C@H](N(Cc2ccccc2)c2ccccc2)CC1(C)C
  pKb: 7.93

## CN1CCC(N(Cc2ccccc2)c2ccccc2)CC1 [BAMIPINE]
  pKb: 8.55
